The text below walks through data of patent publication US11130761B2, “Substituted pyrrolo[2,1-f][1,2,4]triazines as FGFR inhibitors” (CSPC ZHONGQI PHARMACEUTICAL TECHNOLOGY (SHIJIAZHUANG) CO., …, priority 2016, dated 2021).

Sequences of proteins named here, by UniProt entry; tags and fusion partners are left off. Residues count along the entry.
UniProt P11362, 22-822 limits assumed: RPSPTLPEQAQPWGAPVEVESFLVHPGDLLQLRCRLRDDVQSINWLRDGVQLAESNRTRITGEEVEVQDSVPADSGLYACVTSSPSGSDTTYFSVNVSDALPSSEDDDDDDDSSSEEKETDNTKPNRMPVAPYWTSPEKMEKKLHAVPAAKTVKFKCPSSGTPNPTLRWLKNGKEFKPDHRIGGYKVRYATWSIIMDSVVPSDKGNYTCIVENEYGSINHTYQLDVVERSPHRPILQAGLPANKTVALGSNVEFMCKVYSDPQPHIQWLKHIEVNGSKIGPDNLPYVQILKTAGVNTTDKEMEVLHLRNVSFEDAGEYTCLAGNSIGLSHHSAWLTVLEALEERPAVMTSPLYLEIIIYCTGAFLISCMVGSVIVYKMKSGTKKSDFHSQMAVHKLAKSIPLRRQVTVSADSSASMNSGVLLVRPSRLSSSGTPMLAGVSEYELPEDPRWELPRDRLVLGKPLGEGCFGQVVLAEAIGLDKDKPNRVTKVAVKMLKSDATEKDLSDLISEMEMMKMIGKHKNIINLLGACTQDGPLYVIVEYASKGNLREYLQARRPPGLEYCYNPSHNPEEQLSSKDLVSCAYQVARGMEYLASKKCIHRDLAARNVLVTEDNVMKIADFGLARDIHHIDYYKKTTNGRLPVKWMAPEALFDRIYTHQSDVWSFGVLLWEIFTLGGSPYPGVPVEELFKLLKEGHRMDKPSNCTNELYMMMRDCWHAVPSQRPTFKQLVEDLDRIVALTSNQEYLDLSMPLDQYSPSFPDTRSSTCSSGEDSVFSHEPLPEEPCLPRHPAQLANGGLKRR
UniProt P22455, 22-802 limits assumed: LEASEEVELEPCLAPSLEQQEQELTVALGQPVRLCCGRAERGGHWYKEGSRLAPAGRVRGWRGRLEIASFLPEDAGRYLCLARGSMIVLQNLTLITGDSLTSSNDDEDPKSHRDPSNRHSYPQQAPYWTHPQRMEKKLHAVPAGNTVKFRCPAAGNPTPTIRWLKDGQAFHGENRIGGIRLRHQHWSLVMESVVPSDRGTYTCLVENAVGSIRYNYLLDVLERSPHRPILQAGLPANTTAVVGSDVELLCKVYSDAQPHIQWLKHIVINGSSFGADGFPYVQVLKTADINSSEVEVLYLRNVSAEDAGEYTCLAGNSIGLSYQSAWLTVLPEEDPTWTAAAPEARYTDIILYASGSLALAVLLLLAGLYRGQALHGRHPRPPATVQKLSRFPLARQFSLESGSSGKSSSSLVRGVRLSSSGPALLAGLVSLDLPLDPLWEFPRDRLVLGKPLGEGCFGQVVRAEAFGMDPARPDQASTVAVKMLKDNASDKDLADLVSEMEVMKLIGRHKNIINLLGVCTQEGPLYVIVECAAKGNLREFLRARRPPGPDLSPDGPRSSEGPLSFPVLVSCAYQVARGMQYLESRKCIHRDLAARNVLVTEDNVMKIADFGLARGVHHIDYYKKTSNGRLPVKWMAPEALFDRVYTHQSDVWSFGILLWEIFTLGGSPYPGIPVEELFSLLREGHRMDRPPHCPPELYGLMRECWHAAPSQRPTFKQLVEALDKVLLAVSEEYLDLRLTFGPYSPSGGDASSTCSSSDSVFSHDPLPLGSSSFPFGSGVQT

In experiment [1] the target is human FGFR1 (Homo sapiens, UniProt P11362). Description: 33P isotope-labeled kinase activity assay (Reaction Biology Corp), FGFR1. The format is biochemical. To be noted: read-out: IC50 (nM) FGFR1; 33P-ATP kinase assay, ATP 5 μM, kinase 1.75 nM, substrate pEY + Mn, 120 minutes at room temperature.
Experiment [2] deals with human FGFR4 (Homo sapiens, UniProt P22455). Description: 33P isotope-labeled kinase activity assay (Reaction Biology Corp), FGFR4. In kind it is biochemical.

Structures are written as SMILES.

Take `C=CC(=O)N1CCC(c2cc(C#Cc3cc(OC)cc(OC)c3)c3c(N)ncnn23)C1` (single isomer, unassigned) [Embodiment 1]: the IC50 (usually the point on the concentration scale where inhibition reaches its midpoint) in experiment [1] stood at 0.04 nM; in experiment [2] (read-out: IC50 (nM) FGFR4, 33P-ATP kinase assay, ATP 100 μM, kinase 2.5 nM, substrate pEY + Mn, 120 minutes at room temperature), 0.27 nM. Also, the “Inhibition activity difference (IC50 ratio) FGFR4/FGFR1” value in experiment [2] (ratio of FGFR4 IC50 to FGFR1 IC50) came to 7.
